# Tested on: HIP rats
# Conditions: HIP rat kidneys
compound,measurement,setting,value
CC(=O)N1CCC(NC(=O)NC23CC4CC(CC(C4)C2)C3)CC1 [APAU],renal accumulation of HIF-2α,FIG. 22F,lowered
same,renal accumulation of HIF-1α,FIG. 22G,lowered

# — patent US12115141B2, “Diagnosis of diabetes by detecting aggregated amylin in erythrocytes” (University of Kentucky Research Foundation, priority 2018, dated 2024)
